The values that follow come from PubChem BioAssay AID2241 (Broad Institute, 2010).

This is a selection; strong and weak results do not stand in their true shares. Some structures show a salt or complex split into parts, the way the source records it. The source made the active and inactive calls.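 How the source made its calls: active means most replicate scores above 10, or exactly half above 10 with mean activity above 10; inconclusive means mean activity below 10 while half the replicates exceed 10; inactive means most replicate scores below 10.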

This test is described as follows: inducers of caspase activity in MEF A1-2A-BIM cells, primary screen, A1 inhibitor project, cell-based, CaspaseGlo luminescence (AID 2241).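 Further: effector caspase 3 and 7 activity cleaving a DEVD luciferin substrate.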 The note with it: caspase-Glo luminescence, 3 h, hits give high values, percent of clofoctol signal, DMSO as zero, concentration not given here.
In the case of `C/C1=C2N=C(/C=C3N=C(/C(C)=C4\[N-][C@@](C)([C@@H]5N=C1[C@](C)(CCC(=O)NCC(C)OP(=O)(O)O[C@@H]1[C@H](O)[C@H](n6cnc7cc(C)c(C)cc76)O[C@H]1CO)[C@H]5CC(N)=O)[C@@](C)(CC(N)=O)[C@@H]4CCC(N)=O)[C@@](C)(CC(N)=O)[C@@H]\3CCC(N)=O)C(C)(C)[C@@H]/2CCC(N)=O.[C-]#N.[Co+3]` (some centres undefined), the caspase activation was inactive: -0.605%.

Turning to `Cc1cccc(OCC(=O)OC2CN3CCC2CC3)c1` (centres undefined), the caspase activation was inactive: -0.283%.

Regarding `O=C(OC1CN2CCC1CC2)c1ccc(Cl)cc1` (centres undefined), the caspase activation was inactive: 0.541%.

For `Cc1ccc(C(=O)OC2CN3CCC2CC3)cc1` (centres undefined), the caspase activation was inactive: 0.305%.

Regarding `Cc1cc(C)cc(OP(C)(=O)Nc2ccc(OC(C)C)cc2)c1` (centres undefined), the caspase activation is inactive: 0.186%.

For `O=P1(Nc2ccccn2)COc2ccccc2OC1`, the caspase activation is inactive: 0.566%.

Turning to `COc1cc2c(cc1NP(C)(=O)Oc1ccccc1)oc1ccccc12` (centres undefined), the caspase activation was inactive: 0.441%.

As to `CN(C(=O)Cc1ccc(Cl)c(Cl)c1)[C@H]1CCCC[C@@H]1N1CCCC1`, the caspase activation is inactive: 0.309%.

Consider `CP(=O)(Nc1ccc(Cl)cc1)Oc1ccc(F)cc1` (centres undefined), for which the caspase activation was inactive: 0.0447%.
